{"source": "patent US20210087238A1", "about": "“CELL PENETRATING PEPTIDES AND RELATED COMPOSITIONS AND METHODS” (Phylogica Limited, priority 2017, published 2021)", "test_system": "CHO-K1 cells", "experiment": "PAP cell viability assay: SpyC_PAP conjugated to CPP_SpyT, resazurin reduction", "assay_type": "cell-based", "details": "all concentrations tested up to 30 μM; FIG. 4A", "experimental": "With the exception of SpyC PAS proteins, conjugations were set up at a SpyCatcher:SpyTag ratio of 1:1.25, with a 40 μM final concentration for the SpyCatcher moiety. SpyC proteins and SpyTag peptides were incubated for 2 h at 22° C. with gentle mixing, and then left at 4° C. overnight. Conjugation efficiencies were analyzed on 4-16% SDS-PAGE gels stained with Gel Code Blue Reagent (Thermo Fisher Scientific). SpyC_PAS proteins were conjugated with SpyTag peptides at ratio 1:1.1, mixed and incubated at room temperature for 30 mins before being stored overnight at 4° C.\nAll assays followed manufacturer's instructions.\nSpyC-PAP/CPP-SpyT complex IC50s were ranked according to potency to determine impact of changes to primary CPP sequence. […] SpyC_BLA/CPP-SpyT complex median cell fluorescence at 4 μM concentration was ranked according to intensity to determine impact of changes to primary CPP sequence. […]\nFor the first readout of functional activity we chose the proapoptotic peptide PAP (SEQ ID NO:61; Ellerby et al 1999, Nat Med, 5, 1032-1038) as a functional cargo and expressed it recombinantly, fused to SpyCatcher (SEQ ID NO:83) (abbreviated as “SpyC_PAP” or “SpyC-PAP”; SEQ ID NO:62) to enable subsequent conjugation with synthetic CPP-SpyTag fusion proteins. […]", "data": [{"molecule": "SpyC_PAP: SpyCatcher-proapoptotic peptide fusion protein (protein, Amino acid sequence of a SpyCatcher-proapoptotic peptide fusion protein (SC-PAP)) MGHHHHHHGATLEVLFQGPGGSDSATHIKFSKRDEDGKELAGATMELRDSSGKTISTWISDGQVKDFYLYPGKYTFVETAAPDGYEVATAITFTVNEQGQVTVNGKATKGGSGTGATSGKLAKLAKKLAKLA", "values": [{"measurement": "effect on CHO-K1 cell viability", "value": "no effect"}]}]}
